Data reported in BindingDB's records for doi:10.1007/s00210-004-0951-4 (Vernalis Research, 2004).

The chains behind the UniProt entries cited, without tags or fusion partners. Where a name states a change or a piece, a line headed by the entry shows the natural chain unless it says otherwise.
UniProt P28335: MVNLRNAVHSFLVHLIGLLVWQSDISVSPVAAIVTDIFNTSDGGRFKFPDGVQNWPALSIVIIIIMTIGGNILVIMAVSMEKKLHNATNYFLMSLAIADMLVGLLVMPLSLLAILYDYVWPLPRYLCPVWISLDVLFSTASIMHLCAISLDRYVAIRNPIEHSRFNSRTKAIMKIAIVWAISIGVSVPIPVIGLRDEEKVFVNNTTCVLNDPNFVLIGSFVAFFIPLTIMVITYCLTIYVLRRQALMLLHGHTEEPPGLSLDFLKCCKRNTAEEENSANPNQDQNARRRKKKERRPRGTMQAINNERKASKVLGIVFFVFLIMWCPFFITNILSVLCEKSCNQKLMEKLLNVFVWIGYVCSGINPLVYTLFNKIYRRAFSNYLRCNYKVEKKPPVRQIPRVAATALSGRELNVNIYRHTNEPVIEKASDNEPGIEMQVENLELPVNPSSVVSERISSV
UniProt P41595, whole entry: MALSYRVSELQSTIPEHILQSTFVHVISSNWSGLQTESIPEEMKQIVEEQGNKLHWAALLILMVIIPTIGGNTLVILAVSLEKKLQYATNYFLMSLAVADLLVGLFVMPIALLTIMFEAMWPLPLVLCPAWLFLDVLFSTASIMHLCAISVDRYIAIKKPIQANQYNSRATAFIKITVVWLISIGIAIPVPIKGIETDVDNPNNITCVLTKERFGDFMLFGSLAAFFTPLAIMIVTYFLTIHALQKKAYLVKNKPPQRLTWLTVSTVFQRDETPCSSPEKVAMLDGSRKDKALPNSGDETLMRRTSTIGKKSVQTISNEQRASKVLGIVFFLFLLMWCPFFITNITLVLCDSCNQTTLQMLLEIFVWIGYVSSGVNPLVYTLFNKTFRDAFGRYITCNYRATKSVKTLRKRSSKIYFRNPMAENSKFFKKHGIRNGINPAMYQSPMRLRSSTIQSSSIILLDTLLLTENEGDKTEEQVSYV
UniProt P28223, whole entry: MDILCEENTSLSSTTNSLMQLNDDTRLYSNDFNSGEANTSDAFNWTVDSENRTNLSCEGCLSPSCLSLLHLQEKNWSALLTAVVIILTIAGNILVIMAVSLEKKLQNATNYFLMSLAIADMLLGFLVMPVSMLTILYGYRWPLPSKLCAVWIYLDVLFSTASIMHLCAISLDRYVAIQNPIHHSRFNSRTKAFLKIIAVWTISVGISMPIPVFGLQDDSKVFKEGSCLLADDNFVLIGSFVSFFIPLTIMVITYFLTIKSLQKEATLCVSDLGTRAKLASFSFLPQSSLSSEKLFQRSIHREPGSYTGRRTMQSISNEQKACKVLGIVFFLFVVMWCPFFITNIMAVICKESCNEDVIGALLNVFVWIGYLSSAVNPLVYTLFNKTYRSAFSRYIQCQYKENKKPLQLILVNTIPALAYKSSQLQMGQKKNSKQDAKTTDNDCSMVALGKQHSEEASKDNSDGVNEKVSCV

Columns and labels:
[1] = molecular target: 5-hydroxytryptamine receptor 2C (Homo sapiens, UniProt P28335)
[2] = molecular target: 5-hydroxytryptamine receptor 2B (Homo sapiens, UniProt P41595)
[3] = molecular target: 5-hydroxytryptamine receptor 2A (Homo sapiens, UniProt P28223)

| Structure (SMILES) | Ki [1] [nM] | Ki [2] [nM] | Ki [3] [nM] |
| --- | --- | --- | --- |
| Cn1ccc2cc3c(cc21)CCN3C(=O)Nc1cccnc1 | 16.2 | – | – |
| CN1CC(NS(=O)(=O)N(C)C)CC2c3cccc4c3c(cn4C)CC21 (stereo not given) [CAS_64795-35-3] | 1.82 | – | – |
| CCNC(C)Cc1cccc(C(F)(F)F)c1 (stereo not given) [NSC_3337] | 1410 | 5500 | – |
| O=C1NCN(c2ccccc2)C12CCN(CCCOc1ccc(F)cc1)CC2 [NSC_77445] | – | – | 22.4 |
